From patent US20250282834A1, “PEPTIDE INHIBITORS FOR CHROMODOMAIN HELICASE DNA BINDING PROTEIN 4 (CHD4)” (THE REGENTS OF THE UNIVERSITY OF CALIFORNIA, priority 2022, published 2025) come the findings set out here.

Protein sequences, listed by entry. Tags and fused reporters are not part of them. Lines headed by an entry give the natural chain unless they say otherwise; changes in a name come on top.
UniProt Q14839: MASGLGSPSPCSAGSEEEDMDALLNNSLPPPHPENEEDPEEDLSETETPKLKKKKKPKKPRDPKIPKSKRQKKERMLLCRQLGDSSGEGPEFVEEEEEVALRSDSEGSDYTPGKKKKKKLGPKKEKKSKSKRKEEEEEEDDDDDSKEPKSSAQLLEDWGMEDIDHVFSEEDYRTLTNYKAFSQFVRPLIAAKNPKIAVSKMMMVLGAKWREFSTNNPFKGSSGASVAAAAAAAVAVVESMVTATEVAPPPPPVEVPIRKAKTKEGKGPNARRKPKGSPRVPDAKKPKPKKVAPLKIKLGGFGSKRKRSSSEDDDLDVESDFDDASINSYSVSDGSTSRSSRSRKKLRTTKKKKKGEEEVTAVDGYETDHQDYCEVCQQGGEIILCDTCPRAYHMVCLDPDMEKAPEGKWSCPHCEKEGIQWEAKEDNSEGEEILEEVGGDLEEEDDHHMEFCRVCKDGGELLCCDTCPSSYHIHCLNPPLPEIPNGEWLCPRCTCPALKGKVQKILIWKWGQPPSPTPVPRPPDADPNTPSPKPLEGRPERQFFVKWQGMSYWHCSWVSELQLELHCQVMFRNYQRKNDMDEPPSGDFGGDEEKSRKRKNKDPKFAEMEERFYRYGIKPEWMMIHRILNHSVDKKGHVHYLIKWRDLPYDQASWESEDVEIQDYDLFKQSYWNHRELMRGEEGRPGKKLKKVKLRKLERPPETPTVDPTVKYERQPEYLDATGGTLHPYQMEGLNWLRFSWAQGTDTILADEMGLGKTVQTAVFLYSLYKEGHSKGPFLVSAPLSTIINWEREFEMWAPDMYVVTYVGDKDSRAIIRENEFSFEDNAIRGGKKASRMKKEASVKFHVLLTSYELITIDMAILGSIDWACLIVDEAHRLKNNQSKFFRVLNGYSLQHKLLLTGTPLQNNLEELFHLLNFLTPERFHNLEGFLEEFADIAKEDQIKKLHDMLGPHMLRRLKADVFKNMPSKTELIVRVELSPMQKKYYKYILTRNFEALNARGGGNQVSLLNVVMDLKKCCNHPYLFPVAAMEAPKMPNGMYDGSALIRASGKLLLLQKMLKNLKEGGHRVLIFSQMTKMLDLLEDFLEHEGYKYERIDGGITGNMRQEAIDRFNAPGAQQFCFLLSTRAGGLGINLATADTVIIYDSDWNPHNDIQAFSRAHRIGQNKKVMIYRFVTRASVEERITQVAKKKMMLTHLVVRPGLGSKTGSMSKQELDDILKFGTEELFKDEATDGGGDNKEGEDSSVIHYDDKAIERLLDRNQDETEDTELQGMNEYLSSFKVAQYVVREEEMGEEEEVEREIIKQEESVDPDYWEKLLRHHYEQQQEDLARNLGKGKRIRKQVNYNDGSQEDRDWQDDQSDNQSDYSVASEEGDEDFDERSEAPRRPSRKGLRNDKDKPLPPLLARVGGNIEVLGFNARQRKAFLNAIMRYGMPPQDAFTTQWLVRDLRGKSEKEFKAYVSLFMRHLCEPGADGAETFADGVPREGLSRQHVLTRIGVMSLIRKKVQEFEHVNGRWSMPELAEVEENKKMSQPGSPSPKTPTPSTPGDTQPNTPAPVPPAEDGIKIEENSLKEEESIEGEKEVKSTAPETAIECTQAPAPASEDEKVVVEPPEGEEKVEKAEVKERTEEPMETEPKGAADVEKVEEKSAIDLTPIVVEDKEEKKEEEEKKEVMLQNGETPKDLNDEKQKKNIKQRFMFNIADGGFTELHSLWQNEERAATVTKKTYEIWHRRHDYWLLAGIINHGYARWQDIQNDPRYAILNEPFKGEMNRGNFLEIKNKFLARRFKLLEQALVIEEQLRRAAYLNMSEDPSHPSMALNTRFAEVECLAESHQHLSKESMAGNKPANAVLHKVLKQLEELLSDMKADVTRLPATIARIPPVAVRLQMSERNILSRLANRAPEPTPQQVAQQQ

For one experiment, the target named is T1, full-length Flag-CHD4 (Homo sapiens, UniProt Q14839).
T1 construct: made in house; host or cells: Sf9 (recombinant baculovirus)
As to the kind of experiment: Biolayer interferometry (BLI) binding kinetics of peptides to CHD4. To be noted: N-biotinylated peptides immobilized, sequentially diluted full-length Flag-CHD4. On the procedure:
We next examined peptide binding sites on the CHD4 domain and measured affinity to further confirm the interaction. Multiple CHD4 deletion proteins were expressed and purified from recombinant baculovirus-infected Sf9 cells with Flag-agarose beads (FIG. 7a). An equal molecular amount of recombinant proteins was coated on an ELISA plate and increasing concentrations of biotinylated peptides were incubated. […] Binding affinity to the fill-length CHD4 was also calculated with Bio-Layer Interferometry (BLI). […] The N-biotinylated VGN73 or control peptides were first immobilized on a streptavidin-coated chip, and sequentially diluted full-length Flag-CHD4 proteins were applied. The interaction was then detected with interferometry.
To evaluate of binding kinetics of VGN73 and mutant peptide to CHD4, assays were carried out by biolayer interferometry (BLI) on Octet-Red 384 (ForteBio, CA, USA) at 30° C. with shaking at 1,000 RPM. Streptavidin (SA) tips (Sartorius, Goettingen, Germany) were dipped in 200 μL of biotinylated peptide (VGN73, mutant or TAT) solution (1 μM in 1× kinetic buffer) for the loading step. […] Binding kinetics was evaluated using a 1:1 binding model by ForteBio Data Analysis 8.1 software to obtain the dissociation constant KD.
(In BLI a coated tip is dipped into the sample, and binding shifts an interference pattern.)

A further experiment concerns leukemic cell. Briefly: Leukemic cell-killing activity during peptide screening. The experiment is classed as cell-based. To be noted: longer version vs peptide without PYGLKK.
For a further experiment, the target named is CHD4 (Homo sapiens, UniProt Q14839). As to the kind of experiment: CHD4 and LANA protein expression by IFA and western blotting in PEL cells. The format is cell-based. More on the design: endogenous in cells; host or cells: BC3, BCBL-1. On the procedure:
FIG. 3 Effect of VGN73 on CHD4 and LANA protein in tissue culture. FIG. 3. Amount of CHD4 and LANA protein expression was evaluated by IFA. BC3 cells were treated with VGN73 (18 μM) or mutant peptide (18 μM) for 24 hours. Then the cells were stained with the indicated antibodies. The scale is indicated in the panel. Cell volume. CHD4 and LANA signal intensity were compared. **; p<0.01, ***; p<0.001 versus the VGN73 group. FIG. 3b. Amount of CHD4 and LANA protein expression in total cell lysates was evaluated by western blotting. BC3 and BCBL-1 cells were treated with VGN73 at a concentration of IC50 or starved condition for 24 hours. The respective protein band was confirmed by immunoblotting with anti-CHD4 and anti-LANA antibody. FIG. 3c. Evaluating of caspase and proteasome in CHD4 cleavage by VGN73. BC3 cells were pretreated with pan-caspase inhibitor. Z-VAD-FMK (50 μM) or proteasome inhibitor, bortezomib (25 nM) for 1 hour, followed by treated with VGN73 (18 μM) for 8 hours. The respective protein band was confirmed by immunoblotting with anti-CHD4 antibody.
BC3 cells and BCBL-1 cells were treated with VGN73 at the concentration of IC50 for 24 hours. These cells were also treated with VGN73 in media without FBS. To evaluate the effect of VGN73 on CHD4 and LANA proteins in tissue culture, IFA and western blotting were carried out, and these gene expressions were evaluated by RT-qPCR. Moreover, BC3 cells were pretreated with pan-caspase inhibitor, Z-VAD-FMK (50 μM) or proteasome inhibitor, bortezomib (25 nM) for 1 hour, followed by treated with VGN73 (18 μM) for 8 hours. BC3 cells were pretreated with lysosome inhibitor, chloroquine (7.5 μM) for 1 hour, followed by treated with VGN73 (18 μM) for 24 hours. Western blotting was carried out for analyzing biological mechanisms for CHD4 decreasing and inducing cell death by VGN73 treatment.
To evaluate subcellular peptide localization, IFA was carried out (FIG. 2d). Cy5-labeled peptides were used to track subcellular localization. BC3 cells were treated with 10 μM of Cy5-labeled VGN73 or mutant peptide for 1 min and 60 min. Moreover, to evaluate VGN73 efficacy to CHD4 and LANA in tissue culture. IFA was carried out (FIG. 3a). BC3 cells were treated with VGN73 at a concentration of IC50 or mutant peptide for 24 hours. In both assays, the cells were washed with PBS 2 times after peptide treatment. The cells were then fixed with 4% formaldehyde, permeabilized with 0.2% Triton X-100. […] The exposure settings and image acquisition protocols were fixed in each imaging study to enable quantitative analysis. Mean LANA and CHD4 fluorescence (measured in arbitrary units, or A.U.) per cell was subsequently calculated using onboard software and/or NIH Image (FIG. 3a(b)). […]

Molecules are shown by their SMILES. “Also recorded” adds a separate entry of the source.

In the case of `CC[C@H](C)[C@H](NC(=O)[C@@H](NC(=O)[C@H](C)NC(=O)[C@H](Cc1c[nH]cn1)NC(=O)[C@H](CCCCN)NC(=O)[C@H](Cc1c[nH]c2ccccc12)NC(=O)CCNC(=O)[C@H](CCCNC(=N)N)NC(=O)[C@H](CCCNC(=N)N)NC(=O)[C@H](CCCNC(=N)N)NC(=O)[C@H](CCCN)NC(=O)[C@H](CCCNC(=N)N)NC(=O)[C@H](CCCNC(=N)N)NC(=O)[C@H](CCCCN)NC(=O)[C@H](CCCCN)NC(=O)[C@H](N)CCCNC(=N)N)C(C)C)C(=O)N[C@@H](Cc1ccccc1)C(=O)N[C@@H](Cc1c[nH]c2ccccc12)C(=O)NCC(=O)N[C@@H](CC(N)=O)C(=O)N[C@@H](CC(=O)O)C(=O)N1CCC[C@H]1C(=O)N[C@@H](Cc1ccc(O)cc1)C(=O)NCC(=O)N[C@@H](CC(C)C)C(=O)N[C@@H](CCCCN)C(=O)N[C@@H](CCCCN)C(=O)O` [VGN73, (d-Arg}KKRR{ORN}RRR{β-Ala}WKHAVIFWGNDPYGLKK], the “binding to CHD4 by BLI” value on full-length Flag-CHD4 is on record as “binds to CHD4”. Moreover, the “increase of cell-killing effects by addition of C-terminal 6 amino acids (PYGLKK)” value with leukemic cell is “approximately 2 fold”. The “CHD4 cleavage (western blotting, total cell lysates)” value on CHD4 (BC3 and BCBL-1 cells, IC50 concentration, 24 hours) is listed as “induction of CHD4 cleavages; also recorded: effectively induces caspase-mediated CHD4 cleavages”. Also, on CHD4 (BC3 and BCBL-1 cells, VGN73 at IC50, 24 hours), the “degradation of other proteins BRM, SMARCE1, IRF4 in total lysates” value was “not seen; also recorded: spares other cellular proteins”. At CHD4 (BC3 cells, 18 μM, 24 hours), the “intensity of the CHD4 signal (IFA)” value is given as “substantially lowered”. In addition, on CHD4 (starved condition, 24 hours), the “CHD4 cleavage under a low serum condition” value is “enhanced”.
